# scFv variants of Ab-14 (light chain) against a SARS-CoV-2 spike peptide

Binding partner: SARS-CoV-2 spike HR2 peptide, sequence PDVDLGDISGINAS.

Ab-14 is the parent antibody, in scFv form: VH, then the linker GGGGSGGGGSGGGGS, then VL. The heavy chain is unchanged in all variants.
VH: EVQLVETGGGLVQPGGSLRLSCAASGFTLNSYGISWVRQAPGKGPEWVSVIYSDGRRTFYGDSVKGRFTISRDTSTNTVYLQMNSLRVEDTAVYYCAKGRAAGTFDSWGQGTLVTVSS
VL: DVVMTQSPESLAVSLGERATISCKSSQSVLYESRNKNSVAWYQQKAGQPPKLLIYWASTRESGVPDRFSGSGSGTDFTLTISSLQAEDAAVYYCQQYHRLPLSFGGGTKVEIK

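Designed CDR sequences, proposed from the first random library and measured here. Their group label is 14L_GP_Gibbs (GP: Gaussian process model; Gibbs: Gibbs sampling; a sequence that several methods proposed may carry one label only). The assay is AlphaSeq: two haploid yeast populations carry antibody and antigen on their surface. After mating in shaken culture at 30 °C for 16 h, diploids were selected and their barcode pairs sequenced. Scores were corrected for input abundance and mapped to Kd with protein pairs of known affinity run in the same pool. There are six technical replicates.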

Positions count from residue 1 of the parent VL; S25V puts V in place of S. The read-out is the apparent dissociation constant on a log10 scale (nM): the lower, the stronger. The mean shown is taken over the replicates in which the pair was detected. A pair that was not seen in that replicate is written "nd"; this usually means weak binding, but a binder can also be missed. Empty control strains, which show no peptide, gave a signal in 4% of pairings with all light chain designs; the median was 2.64 and 95% of these signals were weaker than 1.59. No background was subtracted. The control count says in how many pairings with the empty strains this scFv gave a signal, with their mean in brackets. The range of this assay differs from that of the first round, and the authors advise against merging the two. The authors averaged sequences with at least three values out of six and counted those with two or fewer as poor binders. Of ten entries with the parent sequence, four were seen in most replicates (averages 0.34 to 2.37), three in one and three in none, so single entries are noisy.

changes | replicates, log10 nM | mean, log10 nM | empty controls
S25V Q27T V29E Y31E N37G T59K S62E | 0.39 0.56 0.53 0.67 0.00 0.81 | 0.49 | 0/18
S25L S26M L30E Y31Q W56H T59L S62V Q96A | 0.65 0.40 0.28 0.54 0.49 0.85 | 0.54 | 1/18 (2.88)
S25L S26Q Q27N V29F N35M S38N W56E T59Q S62M | 0.44 0.37 0.09 0.12 0.31 0.09 | 0.24 | 0/18
S25L V29H L30G Y31G W56H T59L S62V | 0.65 0.50 0.48 0.43 0.59 0.45 | 0.52 | 0/18
S25V V29M L30D K36V N37M W56N E61L S62E | 0.06 0.12 0.20 -0.02 0.03 0.46 | 0.14 | 1/18 (3.19)
S25L L30P S38Q W56D E61M | 0.16 -0.06 -0.10 -0.30 0.05 -0.17 | -0.07 | 3/18 (3.56)
S25F L30D N35Q W56N E61L | -0.05 -0.22 -0.04 -0.15 -0.16 -0.02 | -0.10 | 3/18 (2.86)
S25L S26P Q27G S28W V29Q L30G N37A W56Q | 0.21 0.45 0.23 0.41 0.28 0.36 | 0.32 | 0/18
S25F L30D S33D N35Q W56N E61L | 0.23 0.28 -0.10 -0.37 0.00 0.22 | 0.04 | 2/18 (1.97)
S25I V29W K36S W56N A57G S62L Q96D | -0.10 -0.03 -0.11 -0.21 -0.09 0.11 | -0.07 | 3/18 (2.98)
S25I L30E N35D W56N S58N E61L | 0.29 0.30 0.38 -0.11 -0.08 0.43 | 0.20 | 3/18 (3.19)
S25L V29N S33W K36D W56N E61M | 0.66 0.63 0.41 0.02 0.29 0.38 | 0.40 | 1/18 (2.10)
S25V Q27P S28E V29W L30E N37A W56H | nd nd nd nd nd nd | nd | 0/18
S25L S26D V29W L30W Y31G S33W W56H S62Q Q96D | 0.37 0.29 0.62 0.76 0.35 0.31 | 0.45 | 1/18 (4.42)
S25I V29Y S33D N35A W56N E61L S62W | 0.31 0.29 0.30 0.18 0.13 0.27 | 0.25 | 2/18 (3.00)
S25M S26Q V29E Y31M S33E K36S W56S T59L | nd 0.16 0.31 0.91 1.45 0.39 | 0.64 | 0/18
S25Q Y31M E32G S33E K36S W56N T59Y E61L | 0.72 0.55 0.61 0.41 0.51 0.69 | 0.58 | 0/18
S25L S26Q S28A V29D K36A W56Q E61S Q96C | 0.35 0.47 1.03 0.52 0.83 0.47 | 0.61 | 1/18 (1.13)
S25L V29M K36W W56Q S62D S103T | 0.22 0.37 -0.03 -0.04 0.12 0.29 | 0.15 | 1/18 (2.29)
S25Q V29Q R34G K36G W56N T59V S62D S103M | 1.04 1.05 0.70 0.74 0.76 1.30 | 0.93 | 2/18 (2.80)
S25L Q27T V29H N35M K36V S38A W56E E61M S62D | 0.55 0.09 0.28 0.25 0.51 0.55 | 0.37 | 0/18
K24L S25L S26Q V29E W56D S62E Q96A | 0.70 0.13 0.36 0.33 0.53 0.47 | 0.42 | 1/18 (1.77)
S25L S26P S33Q K36S W56N A57G E61F | -0.12 -0.03 -0.16 -0.19 -0.01 -0.17 | -0.11 | 0/18
S25M S28E V29D L30M Y31M E32L K36W W56Q S62Q | 0.03 -0.11 -0.26 -0.19 -0.12 -0.03 | -0.11 | 1/18 (4.16)
Y31Q K36Q W56E S62V | 0.27 0.36 0.15 0.47 0.18 0.83 | 0.38 | 0/18
S25L S26Q S28M L30E Y31M K36P W56S S62L | 1.01 0.25 -0.15 -0.33 0.36 -0.05 | 0.18 | 0/18
S25G S26Q S28Q L30Q K36W W56N T59Y | 0.35 0.40 0.42 0.33 0.41 0.47 | 0.40 | 1/18 (4.22)
S26M S28L V29E L30Q S33D W56E E61C | 0.05 0.09 -0.15 -0.01 -0.22 -0.01 | -0.04 | 2/18 (2.81)
S25V S28G V29F S33Q N35Q W56N | 0.55 0.64 0.16 0.27 0.37 0.62 | 0.44 | 2/18 (2.57)
S25L Q27M S28L V29W Y31G K36H W56S | 0.38 0.19 0.12 0.01 0.18 0.28 | 0.19 | 2/18 (1.87)
S25L S26Q Q27Y V29F L30M Y31M E32L K36D W56D | -0.08 -0.20 -0.23 -0.59 -0.40 -0.31 | -0.30 | 0/18
S25V S26W Q27P V29E Y31G E32L S33E N37M W56Q | 0.19 0.22 0.06 0.05 0.05 0.29 | 0.14 | 2/18 (2.54)
K24L S25V S26D V29N S33Q W56S T59L E61F | 0.73 0.74 0.51 0.59 0.55 0.78 | 0.65 | 0/18
S25F S28L N35Q W56D T59Q E61L | 0.25 -0.02 0.00 0.23 0.48 0.28 | 0.20 | 0/18
S26G Q27G S28G V29F W56G T59M | 0.75 0.55 0.68 0.52 0.61 1.06 | 0.70 | 0/18
S25H S26E Q27E S28W L30E W56H E61L | 0.15 0.30 -0.05 0.08 0.02 0.05 | 0.09 | 0/18
S25L Q27G L30G K36P S38N W56N S62L | 0.20 -0.28 -0.38 -0.30 -0.36 -0.09 | -0.20 | 0/18
S25V S28L V29D Y31G E32G W56H S58H E61L | 1.09 1.10 1.24 1.39 1.16 1.43 | 1.23 | 3/18 (3.30)
S25L S26E Q27T L30N Y31G S38A W56S T59Q S62Q | -0.11 -0.06 -0.19 -0.29 -0.24 -0.04 | -0.16 | 0/18
S25L V29G S33M N37M W56Q T59Q | 0.15 0.12 0.09 0.03 -0.15 0.11 | 0.06 | 0/18
S25M S26Q V29Q N35M K36S S38A W56N T59Y E61M | -0.01 0.06 -0.06 -0.06 -0.22 0.37 | 0.01 | 1/18 (4.07)

A selection of 3 entries from above:

changes,"replicates, log10 nM","mean, log10 nM",empty controls
S25L S26Q S28M L30E Y31M K36P W56S S62L,1.01 0.25 -0.15 -0.33 0.36 -0.05,0.18,0/18
S25V S28L V29D Y31G E32G W56H S58H E61L,1.09 1.10 1.24 1.39 1.16 1.43,1.23,3/18 (3.30)
S25V Q27P S28E V29W L30E N37A W56H,nd nd nd nd nd nd,nd,0/18

Source: Li et al. 2023 (doi:10.1038/s41467-023-39022-2), MIT Lincoln Laboratory and A-Alpha Bio; data file from the FLAb repository.